According to patent publication US12180165B2, “Human TLR8-selective agonists” (University of Kansas, priority 2015, dated 2024):
pEC50: −log10 of the molar value. Structures can show the parent of a compound that is named as a salt.

Tests used:
human TLR8 = biological target: T1, human TLR8 (Homo sapiens, UniProt Q9NR97); assay: Human TLR8-specific reporter gene assay (NF-κB induction, sAP readout in HEK293 cells); type: cell-based; conditions: for pEC50: read-out: TLR8 Agonistic Activity; for TLR8 Agonistic Activity (nM): EC50 in human TLR8-specific reporter gene assay
T1 construct: expressed in transfected cells; host or cells: HEK293
T1 sequence (Q9NR97 27-1041): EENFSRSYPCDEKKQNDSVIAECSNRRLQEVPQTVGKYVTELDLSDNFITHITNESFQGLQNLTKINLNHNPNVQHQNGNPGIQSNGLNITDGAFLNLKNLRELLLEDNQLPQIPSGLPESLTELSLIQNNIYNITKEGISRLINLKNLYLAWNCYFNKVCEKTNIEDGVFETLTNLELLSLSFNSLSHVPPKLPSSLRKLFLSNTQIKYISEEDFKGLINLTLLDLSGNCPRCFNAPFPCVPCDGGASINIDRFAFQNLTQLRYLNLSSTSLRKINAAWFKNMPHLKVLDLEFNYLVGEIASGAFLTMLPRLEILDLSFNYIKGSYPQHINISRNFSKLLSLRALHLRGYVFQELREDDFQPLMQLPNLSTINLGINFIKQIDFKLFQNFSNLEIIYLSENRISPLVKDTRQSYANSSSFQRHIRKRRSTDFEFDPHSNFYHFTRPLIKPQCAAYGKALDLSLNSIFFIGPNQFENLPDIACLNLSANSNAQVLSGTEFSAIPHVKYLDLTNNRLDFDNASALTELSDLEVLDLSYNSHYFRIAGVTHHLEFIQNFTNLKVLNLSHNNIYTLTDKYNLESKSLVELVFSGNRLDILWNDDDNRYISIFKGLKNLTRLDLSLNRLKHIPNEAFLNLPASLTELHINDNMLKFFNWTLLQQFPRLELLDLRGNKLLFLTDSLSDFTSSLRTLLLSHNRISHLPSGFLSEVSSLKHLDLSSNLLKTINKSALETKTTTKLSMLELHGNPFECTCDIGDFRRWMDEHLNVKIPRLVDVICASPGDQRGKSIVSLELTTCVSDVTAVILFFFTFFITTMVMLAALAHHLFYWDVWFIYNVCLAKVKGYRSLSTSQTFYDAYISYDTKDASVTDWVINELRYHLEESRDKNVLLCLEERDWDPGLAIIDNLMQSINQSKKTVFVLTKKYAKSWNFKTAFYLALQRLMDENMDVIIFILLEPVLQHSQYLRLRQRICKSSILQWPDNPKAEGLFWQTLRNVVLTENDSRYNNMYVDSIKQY

human PBMCs = assay: Cytokine/chemokine induction in human peripheral blood mononuclear cells (multiplexed bead array); type: cell-based; conditions: human PBMCs as well as whole human blood, FIG. 3
Description: Immunoassays for cytokines.

| SMILES | pEC50 (human TLR8) | further results |
| --- | --- | --- |
| CCCCCc1c(N)nc2ccccc2c1CCCCN [Compound 14a, 4-(4-Aminobutyl)-3-pentylquinolin-2-amine dihydrochloride] | 6.72 | – |
| CCCCCc1cc2cccc(CCCCN)c2nc1N [Compound 37, 8-(4-Aminobutyl)-3-pentylquinolin-2-amine] | – | TLR8 Agonistic Activity (nM) (human TLR8): entirely devoid of activity |
| CCCCCc1c(N)nc2ccccc2c1Cc1ccc(CN)cc1 [Compound 9b, 4-(4-(Aminomethyl)benzyl)-3-pentylquinolin-2-amine dihydrochloride] | 6.92 | – |
| CCCCCc1cc2c(CCCN)cccc2nc1N [Compound 23, 5-(3-Aminopropyl)-3-pentylquinolin-2-amine] | 7.04 | – |
| CCCCCc1c(N)nc2ccccc2c1CCCCCN [Compound 14b, 4-(5-Aminopentyl)-3-pentylquinolin-2-amine dihydrochloride] | 6.60 | – |
| CCCCCc1c(N)nc2ccccc2c1Cc1cccc(CN)c1 [Compound 9a, 4-(3-(Aminomethyl)benzyl)-3-pentylquinolin-2-amine dihydrochloride] | 6.82 | – |
| CCCCCc1cc2c(-c3cccc(CN)c3)cccc2nc1N [Compound 20a, 5-(3-(Aminomethyl)phenyl)-3-pentylquinolin-2-amine] | – | TLR8 Agonistic Activity (nM) (human TLR8): entirely inactive |
| CCCCCc1cc2c(CCCCCN)cc(CCCCCN)cc2nc1N [Compound 43, 5,5′-(2-amino-3-pentylquinoline-5,7-diyl)bis(pentan-1-amine)] | 6.21 | – |

The next lines start with results.

| pEC50 (human TLR8) | SMILES | further results |
| --- | --- | --- |
| 5.66 | CCCCCc1cc2c(CCCC(N)=O)cccc2nc1N [Compound 34d, 4-(2-Amino-3-pentylquinolin-5-yl)butanamide] | – |
| 7.25 | CCCCCc1cc2c(CCCCCCN)cccc2nc1N [Compound 34c, 5-(6-Aminohexyl)-3-pentylquinolin-2-amine] | – |
| 7.57 | CCCCCc1cc2c(CCCCN)cccc2nc1N [Compound 34a, 5-(4-Aminobutyl)-3-pentylquinolin-2-amine] | – |
| 8.05 | CCCCCc1cc2c(CCCCCN)cccc2nc1N [Compound 34b, 5-(5-Aminopentyl)-3-pentylquinolin-2-amine] | potency of cytokine induction relative to 3 and 1 (human PBMCs): significantly higher |
| 6.16 | CCCCCc1cc2c(-c3ccc(CN)cc3)cccc2nc1N [Compound 20b, 5-(4-(Aminomethyl)phenyl)-3-pentylquinolin-2-amine] | – |
| 6.28 | CCCCCc1cc2cc(CCCCCN)ccc2nc1N [Compound 35b, 6-(5-Aminopentyl)-3-pentylquinolin-2-amine] | – |
| 5.99 | CCCCCc1cc2cc(CCCCCCN)ccc2nc1N [Compound 35c, 6-(6-Aminohexyl)-3-pentylquinolin-2-amine] | – |
| 7.42 | CCCCCc1cc2c(Cc3ccc(CN)cc3)cccc2nc1N [Compound 18b, 5-(4-(Aminomethyl)benzyl)-3-pentylquinolin-2-amine] | – |
| 7.31 | CCCCCc1cc2c(Cc3cccc(CN)c3)cccc2nc1N [Compound 18a, 5-(3-(Aminomethyl)benzyl)-3-pentylquinolin-2-amine] | – |
| 5.54 | CCCCCc1cc2c(CCCCNC(=N)N)cccc2nc1N [Compound 34e, 1-(4-(2-Amino-3-pentylquinolin-5-yl)butyl)guanidine] | – |
| 7.07 | CCCCCc1cc2ccc(CCCCCCN)cc2nc1N [Compound 36c, 7-(6-Aminohexyl)-3-pentylquinolin-2-amine] | – |
| 6.14 | CCCCCc1cc2cc(CCCCN)ccc2nc1N [Compound 35a, 6-(4-Aminobutyl)-3-pentylquinolin-2-amine] | – |
| 7.30 | CCCCCc1cc2ccc(CCCCCN)cc2nc1N [Compound 36b, 7-(5-Aminopentyl)-3-pentylquinolin-2-amine] | – |
| 6.00 | CCCCCc1cc2c(Cc3ccccc3CN)cccc2nc1N [Compound 18c, 5-(2-(Aminomethyl)benzyl)-3-pentylquinolin-2-amine] | – |
| 7.22 | CCCCCc1cc2ccc(CCCCN)cc2nc1N [Compound 36a, 7-(4-Aminobutyl)-3-pentylquinolin-2-amine] | – |
